Data on 1 compound can be found in PMC7411652 (Sensors (Basel, Switzerland), 2020).

The experiment has as its target T1, CYP1B1 enzyme (Homo sapiens, UniProt Q16678).
T1 construct: expressed in transfected cells; host or cells: Saccharomyces cerevisiae W303-1A derived strains yRD+ (+CPR) and yRD-::Bax (-CPR)
T1 sequence (Q16678 1-543): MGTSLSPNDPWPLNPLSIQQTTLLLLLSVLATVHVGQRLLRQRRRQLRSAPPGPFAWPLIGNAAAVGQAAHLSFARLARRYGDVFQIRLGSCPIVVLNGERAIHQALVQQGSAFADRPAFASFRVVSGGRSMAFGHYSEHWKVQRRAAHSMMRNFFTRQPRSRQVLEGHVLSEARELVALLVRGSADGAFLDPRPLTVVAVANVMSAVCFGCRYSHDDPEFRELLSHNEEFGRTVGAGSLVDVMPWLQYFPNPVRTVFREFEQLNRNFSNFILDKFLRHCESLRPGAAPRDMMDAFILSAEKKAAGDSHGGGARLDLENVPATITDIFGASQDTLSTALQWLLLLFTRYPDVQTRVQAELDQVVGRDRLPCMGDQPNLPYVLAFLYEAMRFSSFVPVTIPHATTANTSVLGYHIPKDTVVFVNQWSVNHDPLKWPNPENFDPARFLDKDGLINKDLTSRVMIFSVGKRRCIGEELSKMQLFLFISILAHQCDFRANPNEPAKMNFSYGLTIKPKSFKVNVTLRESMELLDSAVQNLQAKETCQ
Briefly: Live-cell IC50 determination, CYP1B1 expressed in yeast cells, 7-ethoxyresorufin (7-ER) substrate. Format: cell-based. The conditions noted are these: 1 × 10^7 cells, 10 min incubation. As to the method: The IC50 values were calculated using GraphPad Prism software.

Like-named read-outs stand apart in the source and are kept apart here.

The IC50 is the point on the concentration scale where inhibition reaches its midpoint. Turning to `O=c1cc(-c2ccccc2)oc2c1ccc1ccccc12` [ANF, Alpha-naphthoflavone], the IC50 was found to be 7.5 nM (live yeast strain yRD+ (+CPR), read-out: IC50 for inhibition of CYP1B1 in yRD+ cells) and 7.9 nM (live yeast strain yRD−:: Bax (–CPR), read-out: IC50 for inhibition of CYP1B1 in yRD- cells).
